Assay results reported in patent US7696149B2, “Pharmaceutical administration form for peptides, process for its preparation, and use” (AEterna Zentaris GmbH, priority 2000, dated 2010).

Columns and labels:
[1] = Rat animal experiment: cetrorelix residual content in the muscle 168 h after injection; assay type: in vivo
Experimental: After reconstitution of these lyophilizates, the solutions (2.5 mg/ml of cetrorelix) are investgated in the following tests for aggregate formation and release behaviour: • Polarization microscopy (pol. mic.): days without aggregation. • Filterability in %: • Cetrorelix solutions are prepared according to a standardized procedure and filtered through 0.22 μm or 0.45 μm filters by means of centrifugation. The concentration of cetrorelix in the filtrate is determined by HPLC and indicated as a % value, based on the starting concentration before filtration (filterability in %). • in-vitro release form (RRS, release in Ringer's solution): • % released after 1 h and after 6 h. • The in-vitro release behaviour is determined at 37° C. in a flow procedure using Ringer's solution as medium. The concentration measurement is carried out by HPLC. Cetrorelix samples, corresponding to 10 mg of cetrorelix base, are weighed into the flow cell, mixed with 4 ml of water and stirred for 10 min.
(§1) In the further rat muscle experiments shown in Table 9, in addition to the residual content in the muscle, the cetrorelix content in the plasma was additionally determined.

[2] = Rat muscle experiment: cetrorelix content in the plasma; assay type: in vivo
From the text: as §1

[3] = dose 1.5 mg/kg, inj. soln 3 mg/ml
[4] = dose 3.0 mg/kg, inj. soln 15 mg/ml

Substance: Lactate
- Cetrorelix content in the muscle (168 h), % of the dose [1, 3]: 30.7 % of the dose
- Cetrorelix content in the muscle (168 h), % of the dose [1, 4]: 33.2 % of the dose
- Cetrorelix content in the plasma, % of the dose [2, 3]: 67.1 % of the dose
- Cetrorelix content in the plasma, % of the dose [2, 4]: 72.1 % of the dose
